The values that follow come from patent US7737138B2 (priority 2004, dated 2010).

Protein sequences, listed by entry. Tags and fused reporters are not part of them. Residues count along the entry.
UniProt P10636, 612-707 limits assumed: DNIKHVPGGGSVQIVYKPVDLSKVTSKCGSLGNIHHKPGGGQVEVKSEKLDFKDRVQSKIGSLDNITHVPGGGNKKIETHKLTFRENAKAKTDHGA

The test concerns the target full-length tau (T40) / 12 kD PHF-core tau fragment in fibroblast cells (3T6) (Homo sapiens, UniProt P10636). As to the kind of experiment: Cell-based assay for establishing EC50 (generation of the 12 kD fragment). Particulars: concentration at which there is a 50% inhibition of generation of the 12 kD fragment; 3T6 cells; tested form: Cl.

In general, EC50 refers to the concentration needed to bring the measured effect to its halfway point. As to `CCN(CC)c1cc(C)c2nc3c(C)cc(N(CC)CC)cc3[s+]c2c1`, the EC50 is 4 nM.
